Yeast mating assay 2: variants of the scFv Ab-95

Binding partner: SARS-CoV-2 spike HR2 peptide, sequence PDVDLGDISGINAS.

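Variants in AAYL52 differ from the parent at up to three CDR positions; double and triple changes were sampled at random. The assay is AlphaSeq: two haploid yeast populations carry antibody and antigen on their surface. After mating in shaken culture at 30 °C for 16 h, diploids were selected and their barcode pairs sequenced. Each replicate has its own calibration line, from reference interactions of the BCL2 family. There are three technical replicates.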

The variants keep the heavy chain, the linker and the frameworks of Ab-95 (scFv order VH, a 15-residue (Gly4Ser)3 linker, VL).
VH: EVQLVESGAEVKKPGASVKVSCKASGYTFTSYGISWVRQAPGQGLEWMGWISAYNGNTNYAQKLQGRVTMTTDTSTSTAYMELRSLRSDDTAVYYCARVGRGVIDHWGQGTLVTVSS
VL: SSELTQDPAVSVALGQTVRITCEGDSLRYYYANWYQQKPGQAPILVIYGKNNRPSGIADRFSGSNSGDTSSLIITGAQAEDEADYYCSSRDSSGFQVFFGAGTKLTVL

Each variant is given by its three light chain CDRs, as the data file delimits them; those of the parent are EGDSLRYYYAN, GKNNRPS, SSRDSSGFQVF.
Every variant below is changed at G24 of the VL (sequential numbering).
Kd is apparent (estimated from mating counts) and averaged on the log scale over replicates with a signal. Smaller is tighter.
"nd" means that the variant was in the library but no mating with the target was seen in any replicate; the authors take this as a sign of poor binding, and no number exists.
In this assay the parent's reference entry averaged 200 nM; its copy inside this library read 180 nM.
Nonspecific signal, from three strains lacking the peptide, appeared in 28% of pairings of library AAYL52, centred on 8.2 µM (5% of these signals below 800 nM); values are not corrected for it. For each scFv, signals with the empty controls are counted beside the result.

| CDR-L1 | CDR-L2 | CDR-L3 | Kd | seen in | empty controls |
|---|---|---|---|---|---|
| ELDSLRIYYAN | GKNMRPS | SSRDSSGFQVF | nd | 0/3 | 1/9 |
| EYDRLRYYYAN | GKNNRPS | SSRDSYGFQVF | 5.4 µM | 1/3 | 2/9 |
| ESASLRYYYAN | GKNNRPS | SSRDCSGFQVF | 3.3 µM | 3/3 | 3/9 |
| EMDSLRAYYAN | GKNNRPS | SSRDSSQFQVF | 22 µM | 3/3 | 4/9 |
| EKDSKRYYYAN | GKNNRPS | SSRDSSGFQVF | 770 nM | 3/3 | 1/9 |
| ENDSLRYYYAM | GKNNRPS | SSRLSSGFQVF | 3.4 µM | 1/3 | 1/9 |
| EVDSLRYKYAN | GKNNRPS | SSRDSSGFQVF | 920 nM | 1/3 | 1/9 |
| ELDSLRYYYAN | GKNLRKS | SSRDSSGFQVF | 22 µM | 1/3 | 5/9 |
| ECDSLRYDYAN | GKNNRPS | SSRDGSGFQVF | 1.6 µM | 3/3 | 4/9 |
| EWDSLRDYYAN | GKNNRVS | SSRDSSGFQVF | 130 µM | 1/3 | 2/9 |
| EEDSLRYYYAQ | GKNNRPS | SSRDSLGFQVF | nd | 0/3 | 1/9 |
| EKDSLRAYYAN | GKNNRPS | SSRDSSGFQVF | 350 nM | 3/3 | 9/9 |
| EHDSLRYYYAN | GKNNRPS | SSTASSGFQVF | 850 nM | 2/3 | 3/9 |
| ELDSKRYYYAN | GKNNRPS | SSRDSSGFQVF | 1.5 µM | 2/3 | 3/9 |
| EIWSLRYYYAN | GKNNRPS | SSRDSFGFQVF | 19 µM | 2/3 | 3/9 |
| ELDSLRYDYAN | GKNNRPS | SSRDSSGFQVM | 150 nM | 3/3 | 4/9 |
| ETDSLRYVYAN | GYNNRPS | SSRDSSGFQVF | 250 µM | 2/3 | 5/9 |
| EKDSLRYYYAN | GKNNIPS | FSRDSSGFQVF | nd | 0/3 | 1/9 |
| ERDKLRYYYAN | GKNNRPS | SSRDSSGFQRF | nd | 0/3 | 0/9 |
| EHDSRRYYYAN | GDNNRPS | SSRDSSGFQVF | 29 nM | 3/3 | 2/9 |
| EDDWLRYYYAN | GKNNRPS | SSRDSSGFNVF | 2.5 µM | 3/3 | 1/9 |
| EKDSLRYYYAN | GKDNRPS | SSRDSSGFQVF | 9.9 µM | 3/3 | 8/9 |
| EYDSLRYYYAN | LKNNRPS | SGRDSSGFQVF | 99 µM | 1/3 | 4/9 |
| ENDSLRYYYAN | GKNNRPS | SSRDSHKFQVF | 17 µM | 2/3 | 3/9 |
| EYDSLFYYYAN | GKNNRPS | SSRDSSGFQVF | 1.2 µM | 2/3 | 3/9 |
| ELDSLRYYYAN | GKNNRAS | SSYDSSGFQVF | 1.8 µM | 3/3 | 2/9 |
| EPDSLRYPYAN | GFNNRPS | SSRDSSGFQVF | 3.0 µM | 1/3 | 3/9 |
| EMDSYRYYYAN | GKNNRPS | SSRDSSGVQVF | 21 µM | 2/3 | 3/9 |
| EADSLRYYYAN | GKNNRPS | SSRDESRFQVF | 960 nM | 3/3 | 4/9 |
| ESDSLRYYYGN | GKNNRPS | SSRDSSGCQVF | 30 µM | 1/3 | 1/9 |
| ERDSLRYCYAN | GKNSRPS | SSRDSSGFQVF | 5.1 µM | 2/3 | 2/9 |
| EPDSLRYYYAN | MKNNRPS | SSRDSSGFAVF | 260 µM | 1/3 | 3/9 |
| EWDSLRWYYLN | GKNNRPS | SSRDSSGFQVF | 470 nM | 3/3 | 5/9 |
| KFDSLRYYYAN | GKNNYPS | SSRDSSGFQVF | 1.8 µM | 1/3 | 3/9 |
| EWDSCRYYYAN | GKNNRPS | SSRDSSGFQQF | nd | 0/3 | 1/9 |
| ENDSLTYMYAN | GKNNRPS | SSRDSSGFQVF | 19 µM | 2/3 | 7/9 |
| EADSLRYYYAN | GKNNRPS | SSRDCSGFCVF | nd | 0/3 | 2/9 |
| EMDSLRYYYAN | GKNNSPS | SSRDSSGFRVF | 13 µM | 2/3 | 2/9 |
| EIDELRYYYAN | GKANRPS | SSRDSSGFQVF | 46 µM | 1/3 | 4/9 |
| FYDSLRYYYAN | GKNNRPS | LSRDSSGFQVF | 6.6 µM | 2/3 | 4/9 |
| ESDSLTYYYAN | GKNNRPS | SVRDSSGFQVF | 390 nM | 3/3 | 3/9 |
| EADSLRYYYAL | MKNNRPS | SSRDSSGFQVF | nd | 0/3 | 2/9 |
| EHDSLRYYYAN | GKNNRPN | SSRQSSGFQVF | nd | 0/3 | 1/9 |
| ENDSLRKYYAN | GKNNGPS | SSRDSSGFQVF | nd | 0/3 | 1/9 |
| EVDSLRYAYAN | GKNNRPS | SSRDSSGFQVI | 980 nM | 2/3 | 0/9 |
| EQDSLRYYYHN | GKNNRPS | SSRDSSGMQVF | 38 µM | 1/3 | 1/9 |
| EKDSLRYYYAN | GKNERPS | SSRDSQGFQVF | 2.2 µM | 2/3 | 3/9 |
| ESDSLRYYYAN | GKNNRTS | PSRDSSGFQVF | 1.9 µM | 1/3 | 5/9 |
| EWDSLRAYYAN | GKNNRPS | SSRDSSGFQVF | 6.2 µM | 3/3 | 1/9 |
| EWDSLRYYYAN | GKNNRPS | SGSDSSGFQVF | 12 µM | 3/3 | 3/9 |
| EMDSLRYYYAN | GKNNRPS | SSCLSSGFQVF | 5.9 µM | 3/3 | 3/9 |
| EQDMLEYYYAN | GKNNRPS | SSRDSSGFQVF | nd | 0/3 | 1/9 |
| EVLSLRYYYTN | GKNNRPS | SSRDSSGFQVF | 740 nM | 1/3 | 4/9 |
| EWDSLRYYYAN | GKNNRPS | SSRDSSGFCVF | 1.3 µM | 2/3 | 3/9 |
| EQDSLRYYYAN | IKNNRPF | SSRDSSGFQVF | nd | 0/3 | 1/9 |
| EWDSLRYYYAN | GYNNRPS | ISRDSSGFQVF | 2.6 µM | 2/3 | 3/9 |
| ECDSLRYYYAN | GKNNWPH | SSRDSSGFQVF | 3.1 µM | 1/3 | 4/9 |
| EDDSLRVYYAN | GKNNRPS | SRRDSSGFQVF | 41 µM | 2/3 | 4/9 |
| AQDSLRYYYAN | GKNNRPS | SERDSSGFQVF | 12 µM | 2/3 | 2/9 |
| WLDSLRYYYAN | GKNNRPS | SSRDSDGFQVF | 1.9 µM | 3/3 | 1/9 |
| ECDSLRYYYAN | GKNNRPS | SSRDSSGFNVF | 2.6 µM | 2/3 | 1/9 |
| ELDSLRYYYAD | GKNNRCS | SSRDSSGFQVF | 15 µM | 2/3 | 1/9 |
| ETDSLRYYYAN | GRNNRPS | SSRDSRGFQVF | 12 µM | 3/3 | 0/9 |
| EYDSLRYYYAN | RKNNRPS | SSRDSSGFQVF | 6.2 µM | 2/3 | 3/9 |
| EHDSLRYYYAN | GKNNRFS | SSRDLSGFQVF | 3.6 µM | 2/3 | 4/9 |
| EFDSNRYYYAN | GKNNRPS | SSRDSKGFQVF | 22 µM | 3/3 | 2/9 |
| EFDSLRYYYAN | GKNNRPS | SSRDSDGFQVF | 21 µM | 2/3 | 4/9 |

For reference, 10 entries of the list once more:

CDR-L1,CDR-L2,CDR-L3,Kd,seen in,empty controls
EWDSLRAYYAN,GKNNRPS,SSRDSSGFQVF,6.2 µM,3/3,1/9
EWDSLRYYYAN,GKNNRPS,SSRDSSGFCVF,1.3 µM,2/3,3/9
EFDSNRYYYAN,GKNNRPS,SSRDSKGFQVF,22 µM,3/3,2/9
ECDSLRYDYAN,GKNNRPS,SSRDGSGFQVF,1.6 µM,3/3,4/9
EDDWLRYYYAN,GKNNRPS,SSRDSSGFNVF,2.5 µM,3/3,1/9
EHDSLRYYYAN,GKNNRPS,SSTASSGFQVF,850 nM,2/3,3/9
ESDSLTYYYAN,GKNNRPS,SVRDSSGFQVF,390 nM,3/3,3/9
EYDSLRYYYAN,LKNNRPS,SGRDSSGFQVF,99 µM,1/3,4/9
EKDSKRYYYAN,GKNNRPS,SSRDSSGFQVF,770 nM,3/3,1/9
ELDSLRYDYAN,GKNNRPS,SSRDSSGFQVM,150 nM,3/3,4/9

The measurements come from Engelhart et al. 2022 (doi:10.1038/s41597-022-01779-4) through the FLAb antibody collection.